The source of these data is ChEMBL document CHEMBL5584335, “Investigating Active Site Binding of Ligands to High and Low Activity Carbonic Anhydrase Enzymes Using Native Mass Spectrometry” (J Med Chem, 2024).

Sequences of proteins named here, by UniProt entry; tags and fusion partners are left off. A change or cut given only in a name is not applied to a line headed by its entry.
UniProt P07451: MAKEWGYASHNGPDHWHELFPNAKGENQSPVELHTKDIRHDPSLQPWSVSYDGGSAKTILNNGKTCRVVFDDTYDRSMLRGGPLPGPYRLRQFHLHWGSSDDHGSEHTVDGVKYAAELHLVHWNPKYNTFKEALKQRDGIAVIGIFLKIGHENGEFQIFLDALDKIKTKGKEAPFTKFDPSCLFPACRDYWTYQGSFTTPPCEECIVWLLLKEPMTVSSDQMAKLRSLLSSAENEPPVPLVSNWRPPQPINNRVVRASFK

The target of the experiment is Carbonic anhydrase 3 (Homo sapiens, UniProt P07451). Briefly: Binding affinity to human recombinant CA III active site expressed in Escherichia coli BL21 (DE3) pLysS cells at 18.18 uM at protein:compound ratio of 1:2 incubated for 30 mins by native mass spectrometry analysis.

Calls of active or inactive are those of the source. The rule behind the calls is not given here.

Regarding `NS(=O)(=O)c1cc2c(cc1C(F)(F)F)NC(Cc1ccccc1)NS2(=O)=O` (configuration not stated), the result was inactive. Take `NS(=O)(=O)c1cc2c(cc1Cl)NC(C(Cl)Cl)NS2(=O)=O` (configuration not stated): the outcome was inactive.
